Amino acid sequences for entries named in this document (tags omitted).
UniProt P21396, whole entry: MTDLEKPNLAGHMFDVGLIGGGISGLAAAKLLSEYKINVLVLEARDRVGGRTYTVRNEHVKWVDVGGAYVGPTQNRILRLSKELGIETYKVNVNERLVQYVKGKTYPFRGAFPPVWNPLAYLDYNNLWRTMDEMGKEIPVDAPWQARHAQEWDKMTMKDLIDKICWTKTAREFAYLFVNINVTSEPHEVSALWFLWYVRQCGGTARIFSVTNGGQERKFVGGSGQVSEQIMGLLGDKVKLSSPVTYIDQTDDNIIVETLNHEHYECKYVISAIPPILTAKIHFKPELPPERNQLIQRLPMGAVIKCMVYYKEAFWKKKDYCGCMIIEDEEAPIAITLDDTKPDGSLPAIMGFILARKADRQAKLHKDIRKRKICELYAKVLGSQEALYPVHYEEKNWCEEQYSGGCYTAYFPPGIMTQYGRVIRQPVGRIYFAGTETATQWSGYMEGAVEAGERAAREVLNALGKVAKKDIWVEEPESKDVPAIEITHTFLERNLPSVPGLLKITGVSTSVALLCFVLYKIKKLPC

According to patent US4618622A, “Sulfonates of hydroxycoumarins” (priority 1982, dated 1986):

Target: Monoaminoxidase A (Rattus norvegicus, UniProt P21396)
Assay: biochemical
Conditions: read-out: Monoaminoxidase inhibition IC50
[1] = monoaminoxidase A, rat brain homogenate, 14C-tryptamine 0.4 μmol/liter, 37° C., 20 minutes

## 7-Hydroxy-3-carbomethoxymethyl-4-methylcoumarin benzenesulfonate [Example 47]
[1]
  IC50: 110 nM

## Cc1c(C)c2ccc(OS(C)(=O)=O)cc2oc1=O [Example 2, 7-Hydroxy-3,4-dimethylcoumarin methanesulfonate]
  IC50: 110 nM

## CCS(=O)(=O)Oc1ccc2c(C)c(C)c(=O)oc2c1 [Example 39, 7-Hydroxy-3,4-dimethylcoumarin ethanesulfonate]
[1]
  IC50: 8.4 nM

Like-named read-outs stand apart in the source and are kept apart here.
